According to patent US20250388665A1:

Experiments:
murine TNFα (murine) [1] = target: murine TNFα (murine) (UniProt P06804); experiment: ELISA: Fab captured via anti-human Fd, biotinylated murine TNFα titrated (x axis), prolonged dissociation at pH 7.4, A450
murine TNFα (murine) [2] = target: murine TNFα (murine) (UniProt P06804); experiment: ELISA: Fab captured via anti-human Fd, biotinylated murine TNFα titrated (x axis), prolonged dissociation at pH 6.0, A450

- EC50 (read off the curve) (murine TNFα (murine) [1]): 1 nM
- EC50 (read off the curve) (murine TNFα (murine) [2]): 2 nM
Substance: 4.2a-6 Fab (Fab; other documents disagree on this pair)
